Source: ChEMBL document CHEMBL1159058, “Triazoloacridin-6-ones as novel inhibitors of the quinone oxidoreductases NQO1 and NQO2” (Bioorg Med Chem, 2010)

Species on record: Homo sapiens
Test: Selectivity ratio of IC50 for human recombinant NQO1 to IC50 for human recombinant NQO2

Ratio IC50 | Compound
5.79 | O=c1c2ccccc2n2nnc3ccc(NCCc4ccccc4)c1c32
0.08 | COc1ccc2c(c1)c(=O)c1c(NCCN(C)C)ccc3nnn2c31
11.2 | COc1ccc2c(c1)c(=O)c1c(NCCc3ccccc3)ccc3nnn2c31
